Biological target: T1, peptide CRMFPNAPYL (SEQ ID NO: 13), Example 2
T1 chain: CRMFPNAPYL

B1: Endoplasmic reticulum aminopeptidase 1 (protein)
chain: MVFLPLKWSLATMSFLLSSLLALLTVSTPSWCQSTEASPKRSDGTPFPWNKIRLPEYVIPVHYDLLIHANLTTLTFWGTTKVEITASQPTSTIILHSHHLQISRATLRKGAGERLSEEPLQVLEHPRQEQIALLAPEPLLVGLPYTVVIHYAGNLSETFHGFYKSTYRTKEGELRILASTQFEPTAARMAFPCFDEPAFKASFSIKIRREPRHLAISNMPLVKSVTVAEGLIEDHFDVTVKMSTYLVAFIISDFESVSKITKSGVKVSVYAVPDKINQADYALDAAVTLLEFYEDYFSIPYPLPKQDLAAIPDFQSGAMENWGLTTYRESALLFDAEKSSASSKLGITMTVAHELAHQWFGNLVTMEWWNDLWLNEGFAKFMEFVSVSVTHPELKVGDYFFGKCFDAMEVDALNSSHPVSTPVENPAQIREMFDDVSYDKGACILNMLREYLSADAFKSGIVQYLQKHSYKNTKNEDLWDSMASICPTDGVKGMDGFCSRSQHSSSSSHWHQEGVDVKTMMNTWTLQKGFPLITITVRGRNVHMKQEHYMKGSDGAPDTGYLWHVPLTFITSKSDMVHRFLLKTKTDVLILPEEVEWIKFNVGMNGYYIVHYEDDGWDSLTGLLKGTHTAVSSNDRASLINNAFQLVSIGKLSIEKALDLSLYLKHETEIMPVFQGLNELIPMYKLMEKRDMNEVETQFKAFLIRLLRDLIDKQTWTDEGSVSERMLRSQLLLLACVHNYQPCVQRAEGYFRKWKESNGNLSLPVDVTLAVFAVGAQSTEGWDFLYSKYQFSLSSTEKSQIEFALCRTQNKEKLQWLLDESFKGDKIKTQEFPQILTLIGRNPVGYPLAWQFLRKNWNKLVQKFELGSSSIAHMVMGTTNQFSTRTRLEEVKGFFSSLKENGSQLRCVQQTIETIEENIGWMDKNFDKIRVWLQSEKLERM
B1 gave a formation rate (%) of the peptide obtained by trimming (SEQ ID NO: 2), 1 hr later of 25.5%, a formation rate (%) of the peptide obtained by trimming (SEQ ID NO: 2), 2 hr later of 35.2% and a formation rate (%) of the peptide obtained by trimming (SEQ ID NO: 2), 4 hr later of 46.2%. For the same protein, the formation rate (%) of the peptide obtained by trimming (SEQ ID NO: 2), 8 hr later was 47.6%.
